In patent publication US20200239587A1, “SENSITIZATION OF TUMORS TO THERAPIES THROUGH ENDOGLIN ANTAGONISM” (Cedars-Sinai Medical Center, priority 2016, published 2020):

Tests used:
[1] = test system: CW22Rv1 cells in 3D co-culture with mouse prostatic fibroblasts; experiment: 3D co-culture epithelial proliferation, EpCam and Ki-67 FACS; type: cell-based, human; settings: enzalutamide vs vehicle; p<0.01
Experimental: A modified version of the 3D organotypic co-culture system was performed in a collagen matrix similar to that previously reported (Stark et al., 1999, J Invest Dermatol 112, 681-691). Collagen matrix gels were prepared by mixing five volumes of rat tail collagen I with two volumes of matrigel (NCI), one volume of 10× DMEM medium (GE Healthcare Life Sciences), and one volume of FBS (Atlanta Biologicals), Rv1 and primary mouse prostatic fibroblasts were combined in a 1:3 ratio. Nylon squares were coated with collagen and placed on metal grids in a 6-well plate. Gel plugs (150 μl) were transferred onto the nylon squares and media was added to the level of the nylon mesh. After 72 hours, the cells were dissociated from the matrix with collagenase and dispersed for FACS analysis.
FACS experiments were performed with eBiosciences antibodies: anti-human Stro-1-FITC (340105), anti-human CD90-PE (12-0909-42), anti-human CD105-APC (17-1057-41), anti-mouse CD105-APC (17-1051-82), anti-human CD117-PE-Cy7 (15-1178-41), anti-human Ki67-PECy7 (25-5699-41), and anti-human EpCAM-PE (12-9326-41). All events were acquired on a BD LSRII flow cytometer in the Cedars-Sinai Medical Center FACS core installed with BD FACSDiva software. Files were analyzed using FlowJo software v10.2. […]

[2] = test system: androgen receptor variants and RNPC1; experiment: Androgen receptor variants and RNPC1 expression; type: cell-based; settings: enzalutamide

RNPC1 expression [2]: up regulates RNPC1 expression
SMILES: CNC(=O)c1ccc(N2C(=S)N(c3ccc(C#N)c(C(F)(F)F)c3)C(=O)C2(C)C)cc1F [enzalutamide, reference compound]
CW22Rv1 proliferation index [1]: doubled
